PubChem BioAssay AID2171 (The Scripps Research Institute Molecular Screening Center, 2009)
The list shows a part of the results, in another mix than the full data. Activity calls are given as the source filed them.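 The calls were made as follows: active = inhibition above the hit cutoff set in the earlier primary screen (cut at about 27% in these data); inactive = the rest.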

Amino acid sequences for entries named in this document (tags omitted). A change or cut given only in a name is not applied to a line headed by its entry.
UniProt Q9Y570: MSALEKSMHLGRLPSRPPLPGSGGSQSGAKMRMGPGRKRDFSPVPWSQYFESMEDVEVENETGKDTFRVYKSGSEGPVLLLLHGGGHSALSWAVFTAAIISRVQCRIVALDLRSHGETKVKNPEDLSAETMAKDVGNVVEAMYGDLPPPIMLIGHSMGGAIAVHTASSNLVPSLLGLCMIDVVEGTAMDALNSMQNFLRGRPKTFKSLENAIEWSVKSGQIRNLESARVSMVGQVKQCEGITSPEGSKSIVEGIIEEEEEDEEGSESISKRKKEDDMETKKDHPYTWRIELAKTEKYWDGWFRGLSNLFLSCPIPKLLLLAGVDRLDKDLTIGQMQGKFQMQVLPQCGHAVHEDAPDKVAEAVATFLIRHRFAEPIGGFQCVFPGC

Each compound was assayed against Protein phosphatase methylesterase 1 (Homo sapiens) (UniProt Q9Y570) (assay: human PME-1 methylesterase inhibition confirmation – biochemical, fluorescence polarization, FP-Rh probe, triplicate (AID 2171;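 also: 0% = enzyme with DMSO and 100% = wells lacking PME-1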)). Details: recombinant PME-1, FP-Rh probe fluorescence polarization; at 5.9 µM; hits give high values.

Row | Compound | inhibition
1 | CN(C)C(=O)c1cc([N+](=O)[O-])cc2c1-c1c(cc([N+](=O)[O-])cc1[N+](=O)[O-])C2=O | active: 136%
